# Source: PubChem BioAssay AID504660 (National Center for Advancing Translational Sciences (NCATS), 2011)
# Amino acid sequences for entries named in this document (tags omitted).
# UniProt P21728, whole entry: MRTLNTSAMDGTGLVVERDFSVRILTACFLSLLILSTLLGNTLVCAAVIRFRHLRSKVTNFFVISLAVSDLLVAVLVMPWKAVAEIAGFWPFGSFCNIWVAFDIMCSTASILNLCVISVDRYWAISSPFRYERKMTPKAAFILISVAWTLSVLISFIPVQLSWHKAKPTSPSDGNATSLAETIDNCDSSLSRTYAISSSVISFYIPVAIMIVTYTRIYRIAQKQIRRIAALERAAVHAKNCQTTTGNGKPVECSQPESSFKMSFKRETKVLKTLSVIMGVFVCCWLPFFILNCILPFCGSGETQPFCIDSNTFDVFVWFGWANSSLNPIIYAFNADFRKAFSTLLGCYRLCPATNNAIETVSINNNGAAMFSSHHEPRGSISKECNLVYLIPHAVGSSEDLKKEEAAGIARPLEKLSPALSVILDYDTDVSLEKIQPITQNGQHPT
# Only a part is listed here, and it is no random draw. Some structures show a salt or complex split into parts, the way the source records it. Activity calls are given as the source filed them. Rule as the data show it: active = activation above about 30%; inactive = the rest.
# Target: D(1A) dopamine receptor (Homo sapiens) (UniProt P21728)
# Experiment: Allosteric Agonists of the Human D1 Dopamine Receptor: qHTS; also: 0% is about no effect
# Settings: HEK293 T-REx D1 cells, calcium flux, agonist mode; at 2 µM; stronger effect = higher value
# From the text: NIH Chemical Genomics Center [NCGC] NIH Molecular Libraries Probe Centers Network [MLPCN] MLPCN Grant: NS064831-01 Assay Submitter (PI): David Sibley Dopamine receptors (DARs) are involved in the etiology and/or therapy of a number of neuropsychiatric and endocrine disorders. For instance, all receptor-based antiparkinsonian drugs work via stimulating the D1 DAR subtype whereas all FDA-approved antipsychotic agents are antagonists of this receptor. […] There are three different types of allosteric modulators that we are seeking, two of which will stimulate or augment receptor signaling, allosteric agonists and potentiators, while the third, allosteric antagonists, will attenuate receptor signaling. The present primary screening assay measures compound agonism by tracking calcium flux in a […], inducible Hek293 Trex D1 cell line.
# Freshly passaged cells are plated in 1536 well black, clear bottom plates at a density of 4000 cells/well in 3 ul of complete media containing 1x tetracycline inducer. After an overnight incubation at […] in 5% CO2, cells are loaded with 2 ul of the no wash Calcium Assay Kit (ABD Bioquest) and incubated at room temperature for 30 to 90 minutes. Agonist read: A 10 cycle (1 second/cycle) baseline measurement is taken and then the FDSS online 1536 pintool delivers 23 nl of compound library (as well as dopamine controls) to the plate. The plate is measured for kinetically at 1 cycle/sec for 180 seconds and is considered to be the agonist portion of the assay (eg, compounds which activate a positive calcium response during this portion are flagged as potential agonists). Following the 180 second read, 1 ul of either an EC20 (positive modulation assay) or EC80 (negative modulation assay) is delivered by an onboard pipette head. Measurements are taken kinetically for an additional 180 seconds.
row,SMILES,activation
1,CN(C)C1(CNC(=O)c2cccc(C#N)c2)CCCCC1,inactive: 4.02%
2,c1ccc(CN2CCC(Nc3ccccc3)CC2)cc1,inactive: -0.473%
3,CCCN1CCC(Nc2cc(OC)cc(OC)c2)CC1,inactive: 1.35%
4,O=C(NCC1(N2CCOCC2)CCCCC1)c1ccccc1,inactive: -1.95%
5,CCOC(=O)C(CC)C1=NC(C)(C)Cc2ccccc21.O=[N+]([O-])c1cc([N+](=O)[O-])c(O)c([N+](=O)[O-])c1 (stereo not given),inactive: -0.126%
6,O=C(NCC1(N2CCOCC2)CCCCC1)c1ccccc1[N+](=O)[O-],inactive: 1.89%
7,N#Cc1ccc(C(=O)NCC2(N3CCCCC3)CCCCC2)cc1,inactive: 2.39%
8,O=C(NCC1(N2CCOCC2)CCCCC1)c1ccc([N+](=O)[O-])cc1,inactive: -2.2%
9,CC(C)(C)OC(=O)N1CCC(N(C(=O)c2ccccc2)c2ccc(Cl)cc2)CC1,inactive: 3.48%
10,CCc1cc(C(=O)NCC2(N3CCCCC3)CCCCC2)sc1C,inactive: 11.2%
11,O=C(OC1CN2CCC1CC2)C1c2ccccc2C=Cc2ccccc21 (stereo not given),inactive: 8.31%
12,O=C(O)c1cccc(Nc2c([N+](=O)[O-])cc([N+](=O)[O-])cc2[N+](=O)[O-])c1,inactive: 1.13%
13,CCOC(=O)N1CCC(Nc2ccc(C)cc2)CC1,inactive: 1.06%
14,N/C(=N\O)c1c(N)no[n+]1[O-],inactive: 0.538%
15,COc1ccc(C(=O)NCC2(N3CCOCC3)CCCCC2)cc1OC,inactive: 0.417%
16,O=C(NCC1(N2CCOCC2)CCCCC1)c1cc(Br)ccc1Cl,inactive: 0.42%
17,CN1CCC(Nc2ccc(Cl)cc2)CC1,inactive: 4.48%
18,CCCOc1ccc(C)cc1CN(CCCl)CCCl,inactive: 2.61%
19,COc1cccc(C(=O)N(c2cc(C)cc(C)c2)C2CCN(C(=O)OC(C)(C)C)CC2)c1,inactive: 1.28%
20,COc1cc(C(=O)NCC2(N3CCOCC3)CCCCC2)cc(OC)c1OC,inactive: -0.558%
21,COc1cc(OC)cc(C(=O)NCC2(N3CCOCC3)CCCCC2)c1,inactive: 2.43%
22,CCC(CO)(C(=O)OC1CN2CCC1CC2)c1ccccc1 (stereo not given),inactive: 2.73%

row,SMILES,activation
1,CC(C)(C)OC(=O)N1CCC(Nc2ccccc2)CC1,inactive: 2.35%
2,O=C(O)C1(Nc2ccccc2)CCN(Cc2ccccc2)CC1,inactive: 2.1%
3,CCCOc1ccc(C(=O)NCC2(N(C)C)CCCCC2)cc1,inactive: 3.82%
4,CCOc1ncccc1C(=O)NCC1(N2CCOCC2)CCCCC1,inactive: 2.42%
5,CN1CCC(Nc2ccc(F)c(Cl)c2)CC1,inactive: 8.95%
6,Cc1ccccc1C(=O)NCC1(N(C)C)CCCCC1,inactive: -0.577%
7,O=C(NCC1(N2CCCCC2)CCCCC1)c1ccco1,inactive: 0.975%
8,CC(C)(C)c1ccc(C(=O)NCC2(N3CCOCC3)CCCCC2)cc1,inactive: -1.6%
9,CN(C)c1ccc(C(=O)NCC2(N3CCCCC3)CCCCC2)cc1,inactive: 10.6%
10,CCN1CCC(Nc2cccc(F)c2)CC1,inactive: 2.34%
11,Cc1ccc(C(=O)NCC2(N3CCCCC3)CCCCC2)o1,inactive: 0.284%
12,Fc1ccccc1NC1CCN(Cc2ccccc2)CC1,inactive: 1.09%
13,CN(C)C1(CNC(=O)c2ccc(C(C)(C)C)cc2)CCCCC1,inactive: 6.66%
14,COc1cc(OC)cc(C(=O)NCC2(N3CCCCC3)CCCCC2)c1,inactive: 1.26%
15,CCOC(=O)N1CCC(Nc2cccc(C)c2)CC1,inactive: 3.81%
16,COc1cc(C(=O)NCC2(N(C)C)CCCCC2)ccc1OC(F)F,inactive: 3.56%
17,Cc1ccc(OCC(C)C)c(CN(CCCl)CCCl)c1,inactive: 4.32%
18,COc1ccccc1C(=O)NCC1(N2CCOCC2)CCCCC1,inactive: -0.938%
19,CCCCOc1ccc(C(=O)NCC2(N3CCOCC3)CCCCC2)cc1,inactive: 4.54%
20,O=C(NCC1(N2CCCCC2)CCCCC1)c1ccc(F)cc1,inactive: -1.43%
21,CCOC(=O)N1CCC(Nc2ccc(F)cc2)CC1,inactive: 4.27%
22,COc1ccc(NC2CCN(CCc3ccccc3)CC2)c(OC)c1,inactive: 3.1%

row,SMILES,activation
1,O=C(NCC1(N2CCOCC2)CCCCC1)c1ccc(Cl)cc1,inactive: -1.42%
2,CCOc1ccc(C)cc1CN(CCCl)CCCl,inactive: -0.723%
3,N#CC1(Nc2ccccc2)CCN(Cc2ccccc2)CC1,inactive: 2.42%
4,O=C(NCC1(N2CCCCC2)CCCCC1)c1ccc(Cl)s1,inactive: 2.29%
5,O=C(OC1CN2CCC1CC2)C1c2ccccc2Oc2ccccc21 (stereo not given),inactive: 10.2%
6,COc1ccc(Cl)cc1C(=O)NCC1(N2CCOCC2)CCCCC1,inactive: 2.91%
7,CCOC(=O)N1CCC(Nc2ccc(OC)cc2)CC1,inactive: 2.61%
8,O=C(NCC1(N2CCCCC2)CCCCC1)c1ccc(Cl)nc1,inactive: 3.27%
9,Cc1cc(C)cc(N(C(=O)c2ccccc2)C2CCN(C(=O)OC(C)(C)C)CC2)c1,inactive: 2.95%
10,O=C(NCC1(N2CCOCC2)CCCCC1)c1cc2ccccc2o1,inactive: 0.955%
11,CSc1ccccc1C(=O)NCC1(N2CCCCC2)CCCCC1,inactive: -0.198%
12,COc1ccc(C(=O)NCC2(N3CCCCC3)CCCCC2)cc1,inactive: -0.179%
13,COc1ccc(C(=O)NCC2(N3CCCCC3)CCCCC2)c(OC)c1OC,inactive: -1.58%
14,CC(C)(C)OC(=O)N1CCC(N(C(=O)c2ccccc2)c2ccc(F)cc2)CC1,inactive: 0.372%
15,O=C(NCC1(N2CCCCC2)CCCCC1)c1ccc(=O)[nH]c1,inactive: 2.43%
16,O=C(NCC1(N2CCCCC2)CCCCC1)c1cccs1,inactive: -0.453%
17,CCCCOc1ccccc1C(=O)NCC1(N2CCOCC2)CCCCC1,inactive: 0.308%
18,O=C(NCC1(N2CCOCC2)CCCCC1)c1ccccc1Br,inactive: -0.804%
19,CCCOc1ccc(C(=O)NCC2(N(C)C)CCCCC2)cc1OC,inactive: 7.12%
20,O=C(OC1CN2CCC1CC2)c1ccc([N+](=O)[O-])cc1 (stereo not given),inactive: 2.66%
21,O=C(NCC1(N2CCCCC2)CCCCC1)c1cncc(Br)c1,inactive: 1e-08%
22,COc1ccc2c(c1O)-c1c(O)c(OC)cc3c1[C@H](C2)[N+](C)(C)CC3.O=[N+]([O-])c1cc([N+](=O)[O-])c([O-])c([N+](=O)[O-])c1[O-],inactive: 3.48%

row,SMILES,activation
1,COc1cc(OC)c(C(=O)NCC2(N(C)C)CCCCC2)cc1OC,inactive: 0.379%
2,CC(C)c1ccc(NC2CCN(C(=O)OC(C)(C)C)CC2)cc1,inactive: 8.34%
3,COc1ccc(CN(CCCl)CCCl)cc1Cl,inactive: 2.02%
4,CN(C)c1cccc(C(=O)NCC2(N3CCCCC3)CCCCC2)c1,inactive: 0.929%
5,O=[N+]([O-])c1cc([N+](=O)[O-])c(OC2CCCCC2O)c([N+](=O)[O-])c1 (stereo not given),inactive: 1.35%
6,O=C(NCC1(N2CCOCC2)CCCCC1)c1cc(=O)[nH]c2ccccc12,inactive: 0.715%
7,COc1cc(C(=O)NCC2(N3CCCCC3)CCCCC2)ccc1OC(F)F,inactive: 0.74%
8,COc1ccc(NC2CCN(C(=O)OC(C)(C)C)CC2)cc1,inactive: 5.71%
9,CC(C)c1ccc(C(=O)NCC2(N3CCOCC3)CCCCC2)cc1,inactive: 5.46%
10,CN1CCN(CCOC(=O)C(O)(c2ccccc2)c2ccccc2)CC1,inactive: 2.35%
11,O=[N+]([O-])c1cc([N+](=O)[O-])c(NCC2CCS(=O)(=O)C2)c([N+](=O)[O-])c1 (stereo not given),inactive: 2.74%
12,O=C(NCC1(N2CCCCC2)CCCCC1)c1cccc(C(F)(F)F)c1,inactive: 3%
13,CCCOc1cccc(C(=O)NCC2(N3CCOCC3)CCCCC2)c1,inactive: -1.66%
14,CCN1CCC(Nc2ccc(Cl)cc2)CC1,inactive: 5.11%
15,N#CC1(Nc2ccccc2)CCN(CCc2ccccc2)CC1,inactive: 3.9%
16,CSc1ccc(C(=O)NCC2(N3CCOCC3)CCCCC2)cc1,inactive: 1.35%
17,O=C(NCC1(N2CCCCC2)CCCCC1)c1cccc([N+](=O)[O-])c1,inactive: 5.17%
18,CCOc1ccc(C(=O)NCC2(N3CCOCC3)CCCCC2)cc1,inactive: 0.991%
19,O=C(NCC1(N2CCCCC2)CCCCC1)c1ccc(OC(F)F)cc1,inactive: 2.6%
